# Reference: US20240239804A1, “FUROINDAZOLE DERIVATIVES AS ANTAGONISTS OR INHIBITORS OF GPR84” (Bayer Aktiengesellschaft, priority 2021, published 2024)
# Protein sequences, listed by entry. Tags and fused reporters are not part of them.
# UniProt Q9NQS5, whole entry: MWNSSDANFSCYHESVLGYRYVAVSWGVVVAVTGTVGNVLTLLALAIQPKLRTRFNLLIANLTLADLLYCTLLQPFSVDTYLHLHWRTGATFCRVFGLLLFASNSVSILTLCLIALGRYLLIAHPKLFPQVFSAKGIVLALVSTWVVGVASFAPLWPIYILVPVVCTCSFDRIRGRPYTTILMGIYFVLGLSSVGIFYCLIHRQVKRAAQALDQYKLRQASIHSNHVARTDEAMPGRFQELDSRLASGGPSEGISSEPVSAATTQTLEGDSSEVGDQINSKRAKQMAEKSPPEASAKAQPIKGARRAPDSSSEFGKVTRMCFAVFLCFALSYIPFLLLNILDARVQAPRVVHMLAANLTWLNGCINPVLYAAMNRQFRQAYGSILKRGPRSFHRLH
# Target: human GPR84 receptor (Homo sapiens, UniProt Q9NQS5)
# Assay: cAMP HTRF assay for identification of cellular GPR84 antagonists
# Conditions: read-out: GPR84 IC50; CHO-K1 cells stably expressing human GPR84; Forskolin plus agonist 6-OAU; cAMP HTRF readout; average or median values
# From the text: cAMP HTRF® Assay for Identification of Cellular GPR84 Antagonists
# By using a Homogenous Time-Resolved Fluorescence (HTRF®) based assay (#62AM5PEJ, Cisbio, Condolet, France) the inhibition of the Gi-coupled GPR84 receptor can be detected. CHO-K1 cells stably expressing human GPR84 receptor (purchased from DiscoveRx, now Eurofins) were used and treated with Forskolin (F6886, Sigma, Germany) to stimulate membrane adenylyl cyclases and thereby unspecific cAMP formation. Activation of the Gi-coupled GPR84 by a natural or small molecule agonist (e.g. 6-n-octyl aminouracile, inhouse) results in inhibition of cellular cAMP formation which can be released again by antagonists to this receptor. Detection and quantification of cellular cAMP levels in this HTRF assay is achieved by interaction between a fluorescent cAMP tracer (cAMP-d2) and an Eu-cryptate labelled anti-cAMP antibody. Following excitation at 337 nm this pairing allows for the generation of a fluorescence resonance energy transfer (FRET) between the partners and results in FRET induced emissions at 665 nm and 620 nm, the latter representing background signal by Eu-cryptate labelled anti-cAMP antibody. Maximal signal is obtained in the absence of any cellular cAMP (no competition for the binding of the tracer to the antibody). Given the combination of the Gi coupling properties of GPR84 and the competitive nature of the detection system agonist treatment should result in an increase in the HTRF signal due to lowered cAMP levels. Any signal decrease in the presence of Forskolin, agonist and compound are indicative of antagonist mediated abrogation of GPR84 signalling.
# For the assay, frozen aliquots of CHO-K1 cells expressing hGPR84 (prepared by acCELLerate, Hamburg, Germany) were thawed and a cell suspension (1.67E+06 cells/mL) in assay media (Ham's F12 Nutrient Mix, Thermo Fisher Scientific, Waltham, USA; 5% fetal calf serum, Biomol, Hamburg, Germany) containing cAMP-d2 (dilution 1:20, supplied with the kit #62AM5PEJ, Cisbio, Condolet, France) was prepared. After recovery of cells for 20 minutes at 37° C., 3 μL/well cell suspension including cAMP-d2 were added to a pre-dispensed assay plate (Greiner Bio-One, Kremsmuenster, Austria) containing 50 nl/well test compound in 100% DMSO or 100% DMSO as control. This was followed by a 30 minute incubation step at room temperature. The stimulation time was started by addition of 2 μL/well assay media containing 2.5×EC80 agonist 6-OAU and 2.5×EC90 Forskolin (negative control: 2.5×EC90 Forskolin in assay media) and was continued for 30 minutes at room temperature. The reaction was stopped by addition of 3 μL/well lysis buffer containing cAMP Eu-Cryptate antibody (dilution 1:20) (both supplied with the kit #62AM5PEJ, Cisbio, Condolet, France). To enable complete lysis, plates were incubated for 60 minutes at room temperature before measurement in an HTRF reader, e.g. a PHERAstar (BMG Labtech, Ortenberg, Germany).
# From the fluorescence emissions at 665 nm (FRET) and at 620 nm (background signal of Eu-cryptate) the ratio (emission at 665 nm divided by emission at 620 nm×10000) was calculated and the data were normalized (reaction without test compound, only 100% DMSO=0% inhibition; all other assay components except agonist=100% inhibition). […]
row,SMILES,IC50 [nM]
1,Cc1ccc(CNC(=O)c2oc3c(c2C)-c2nn(Cc4cccc(Cl)c4)cc2CC3)cc1,100
2,"Cc1c(C(=O)NCC2CCCO2)oc2c1-c1nn(Cc3ccc(F)cc3Cl)cc1CC2 (single isomer, unassigned) [Example 92-1]",120
3,"Cc1c(C(=O)NCC2CCCO2)oc2c1-c1nn(Cc3ccccc3Cl)cc1CC2 (single isomer, unassigned) [Example 9-1]",15

# The remaining lines, values ahead:
row,IC50 [nM],SMILES
1,340,"Cc1c(C(=O)NCC2CCCO2)oc2c1-c1nn(Cc3ccc(F)cc3Cl)cc1CC2 (single isomer, unassigned) [Example 92-2]"
2,60,"Cc1c(C(=O)NCC2CCCO2)oc2c1-c1nn(Cc3ccccc3Cl)cc1CC2 (single isomer, unassigned) [Example 9-2]"
